{"source": "patent EP0032748B1", "about": "“Thiophene derivatives” (UBE INDUSTRIES, LTD., priority 1980, dated 1981)", "tested_on": "paddy rice", "experiment": "Test Example 3: degree of phytotoxicity on paddy rice (injury rating)", "conditions": "Table 4, spray liquid 65 ppm", "data": [{"substance": "Ammonium iron methanearsonate", "values": [{"measurement": "Degree of phytotoxicity", "value": 0}]}]}
